Source: ChEMBL document CHEMBL2157905, “Inhibition of therapeutically important polymerases with high affinity bis-intercalators” (Bioorg Med Chem Lett, 2012)

Molecular target: Human immunodeficiency virus type 1 reverse transcriptase (Human immunodeficiency virus 1) (UniProt Q72547)
Experiment: Ratio of IC50 for HIV-1 reverse transcriptase using 0.05 ug/mL of Poly(rA).p(dT) (12 to 18) as substrate to IC50 for HIV-1 reverse transcriptase using 25 ug/mL of Poly(rA).p(dT) (12 to 18) as substrate

Question: Which Ratio IC50 does the source give for Nc1ccc2c(c1)c(-c1ccccc1)[n+](CCCNCCNCCC[n+]1c(-c3ccccc3)c3cc(N)ccc3c3ccc(N)cc31)c1cc(N)ccc21 here?
Answer: Its Ratio IC50 is 213.
